According to patent US20060189539A1, “Novel GnRH analogues with antitumour effects and pharmaceutical compositions thereof” (priority 1994, published 2006):

Settings: summary statement

Ac-D-Trp1,3,D-Cpa2,{D-Lys[n-poly-(N-vinylpyrrolidone-co-maleic acid)-Gly-Phe-Leu-Gly]}6. D-Ala10-GnRH [P-GFLG-1544]
Toxicity according to the in vivo studies: non-toxic

Ac-D-Trp^1,3,D-Cpa^2,{Lys[n-poly(N-vinyl pyrrolidone-co-maleic acid)-Gly-Phe-Leu-Gly-]}5, [a-Asp(DEA)]6, D-Ala10-GnRH [P-GFLG-1892]
Toxicity according to the in vivo studies: non-toxic
